The source of these data is patent US4197299A, “Anti-hypertensive derivatives of ergoline-2-thioethers and their sulphoxides” (priority 1977, dated 1980).

This test has as its system 5HT. Nature of the test: Anti 5HT activity in vitro (f). The text has this:
(f) V. Ersparmer, Arch. Int. Pharmacodyn. 93, 293,

For the molecule `CN1C[C@H](CNC(=O)OCc2ccccc2)C[C@@H]2c3cccc4c3c(cn4C)C[C@H]21` [metergoline, reference compound], the “Anti 5HT activity in vitro EC50” value turned out to be 0.005 ng/mL.
